Only a part is listed here, and it is no random draw. Records with an inconclusive call do not appear. Activity calls are given as the source filed them.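 Rule for the calls: active = thallium flux rate significantly above the same plate's solvent-only control wells, beyond their mean plus 3 SD; inconclusive = the two replicate wells gave conflicting results; inactive = the rest.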
Assay: compound effects on native HEK Tl+ uptake – HEK cells, counterscreen 1, counter-screen for KCC2 modulator project, confirmation (AID 1716)
Details: HEK293 parental cells, thallium flux FluoZin2, ouabain; at 10 µM; baseline-ratio fluorescence slope, 10–20 s after thallium

| Compound | thallium flux rate (normalised fluorescence) |
| --- | --- |
| O=c1c2cc([N+](=O)[O-])ccc2[nH]c2c([N+](=O)[O-])cc([N+](=O)[O-])cc12 | active: 0.0124 |
| O=P(Nc1nc2ccc(Cl)cc2s1)(c1ccccc1)c1ccccc1 | active: 0.0166 |
| C[N+]1=C2C=CC=CC=C2SC12C([N+](=O)[O-])=CC([N+](=O)[O-])=C[C-]2[N+](=O)[O-] (stereo not drawn) | active: 0.021 |
